Measurements published in patent publication US20240335465A1 (University of Virginia Patent Foundation, priority 2021, published 2024).

How the values were obtained:
PARylation = test: PolyADP-ribosylation (PARylation) immunoblot; type: cell-based, human; details: WT THP1, Rec IFNβ 50 ng/ml 6 hours, then H2O2
From the text: Cells were collected by centrifugation, washed once with ice-cold PBS, lysed in RIPA buffer and analyzed by western blot to detect PARylation using pADPr Antibody (Santa Cruz sc-56198).

DDR signaling = DDR signaling immunoblotting in THP1 cells; details: WT THP1, recombinant human interferon β, 6 hours

B1: recIFN-β: human recombinant interferon β, a primary cytokine induced by cGAMP (protein, UniProt P01574 22-187, looked up)
Interferon beta: MSYNLLGFLQRSSNFQCQKLLWQLNGRLEYCLKDRMNFDIPEEIKQLQQFQKEDAALTIYEMLQNIFAIFRQDSSSTGWNETIVENLLANVYHQINHLKTVLEEKLEKEDFTRGKLMSSLHLKRYYGRILHYLKAKEYSHCAWTIVRVEILRNFYFINRLTGYLRN
PARylation
  protein PARylation: did not inhibit protein PARylation
DDR signaling
  DDR marker γH2AX: but not the DDR marker γH2AX
  STAT2 activation (pSTAT2): activation of the downstream signaling molecule STAT2
